Assay [1] deals with T1, human serotonin re-uptake transporter (hSERT) (Homo sapiens, UniProt P31645). The assay can be described thus: Serotonin uptake inhibition in HEK-293 cells stably expressing hSERT. It counts as cell-based. Particulars: read-out: Inhibition constant Ki for tritiated serotonin uptake; transfected HEK-293 cells; Ki from IC50 by Cheng-Prusoff; 20 nM (3H) serotonin. How it is done:
HEK-293 cells stably expressing the human serotonin re-uptake transporter (hSERT) were obtained from R. Blakely, Vanderbilt University, USA. The cells were routinely grown in Dulbeco's Modified Eagles Medium, purchased from Bioconcept, Allschwil, Switzerland containing 10% fetal calf serum, penicillin, streptomycin, L-glutamine and the antibiotic G418 and passaged by trypsinisation. 1 day prior to the assay cells were seeded in the above mentioned medium. Immediately prior to the assay the medium was replaced by Krebs Ringers bicarbonate buffer, purchased from Sigma Chemicals Ltd., supplemented with 35 μM pargyline, 2.2 mM CaCl2, 1 mM ascorbic acid and 5 mM N-2-hydroxyethylpiperazine-N′-2-ethanesulfonic acid (buffer called “Hepes”). Serotonin uptake into the cells was determined by addition of radio-labeled (3H) serotonin (Amersham Biosciences GE Healthcare, Slough, UK) to a concentration of 20 nM, and incubation for 30 minutes at room temperature. Following removal of unincorporated label by gentle washing three times with the above buffer, incorporated serotonin was quantified by liquid scintillation counting.
The effect of the coumarin ethers of formula I on the serotonin uptake and the citalopram binding was determined by its inclusion in the assay at a range of concentrations between 0.03 and 100 μM for 10 minutes prior to and during the addition of (3H) serotonin/citalopram. […]

Amino acid sequences for entries named in this document (tags omitted).
UniProt P31645, whole entry: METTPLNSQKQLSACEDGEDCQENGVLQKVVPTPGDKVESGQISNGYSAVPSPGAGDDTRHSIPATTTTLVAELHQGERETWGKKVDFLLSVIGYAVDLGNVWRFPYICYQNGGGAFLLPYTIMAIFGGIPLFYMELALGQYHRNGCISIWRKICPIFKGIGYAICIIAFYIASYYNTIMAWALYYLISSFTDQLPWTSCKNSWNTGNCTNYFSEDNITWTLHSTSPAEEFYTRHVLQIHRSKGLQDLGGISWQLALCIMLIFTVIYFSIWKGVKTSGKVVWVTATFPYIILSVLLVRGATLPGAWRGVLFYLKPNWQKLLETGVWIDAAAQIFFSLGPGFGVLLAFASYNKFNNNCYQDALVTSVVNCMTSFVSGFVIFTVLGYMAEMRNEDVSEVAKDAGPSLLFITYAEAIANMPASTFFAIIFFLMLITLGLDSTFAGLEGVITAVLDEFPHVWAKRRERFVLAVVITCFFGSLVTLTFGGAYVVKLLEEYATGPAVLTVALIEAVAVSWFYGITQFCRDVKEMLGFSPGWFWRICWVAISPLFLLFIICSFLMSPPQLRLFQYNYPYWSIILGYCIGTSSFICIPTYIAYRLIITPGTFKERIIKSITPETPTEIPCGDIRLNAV

The target in assay [2] is T1, human serotonin re-uptake transporter (hSERT). The assay can be described thus: Labeled citalopram displacement from hSERT containing membranes (SPA). Particulars: read-out: Inhibition constant Ki for tritiated citalopram displacement, Ki from IC50 by Cheng-Prusoff, 3.3 nM (3H) citalopram. It counts as binding. How it is done:
Membranes containing hSERT were prepared from the above cell line according to Galli et al, Journal of Experimental Biology 1995, 198, 2197-2212. 3 μg of membrane protein and 0.8 mg of wheat germ aglutinin coated SPA® (scintillation proximity assay) beads (Amersham Biosciences GE Healthcare, Slough, UK) per data point were mixed with radio-labeled (3H) citalopram (Amersham Biosciences GE Healthcare, Slough, UK) until a final concentration of 3.3 nM in 50 mM Tris-HCl, 300 mM NaCl (pH 7.4). After incubation for 18 hours at room temperature, the bound citalopram was quantified by liquid scintillation counting.
The effect of the coumarin ethers of formula I on the serotonin uptake and the citalopram binding was determined by its inclusion in the assay at a range of concentrations between 0.03 and 100 μM for 10 minutes prior to and during the addition of (3H) serotonin/citalopram. Serotonin uptake via the transporter and citalopram binding were both inhibited by the coumarin ethers of formula I in a dose dependent manner. The calculated inhibition constants Ki, derived from the measured IC50 using the Cheng—Prusoff equation (Y. C. Cheng, W. H. Prusoff, Biochem. Pharmacol. 1973, 22, p. 3099-3108), for inhibition of serotonin uptake and citalopram binding by coumarin ethers of the formula I are shown in Table 1.

Broadly, the Ki is the equilibrium dissociation constant of an inhibitor or competing ligand from its target. Turning to `CC(=O)OC(C)(C)C(=O)C/C=C(/C)CCC/C(C)=C/COc1ccc2ccc(=O)oc2c1`, the Ki in assay [1] is 4.3 µM; in assay [2], 7.4 µM.
